Patent US20220380376A1, “Nitrogen Oxide-Donating PDE-5 and/or PDE-6 Inhibitor Compounds” (ILDONG PHARMACEUTICAL CO., LTD., priority 2019, published 2022)

The chains behind the UniProt entries cited, without tags or fusion partners.
UniProt P51160, whole entry: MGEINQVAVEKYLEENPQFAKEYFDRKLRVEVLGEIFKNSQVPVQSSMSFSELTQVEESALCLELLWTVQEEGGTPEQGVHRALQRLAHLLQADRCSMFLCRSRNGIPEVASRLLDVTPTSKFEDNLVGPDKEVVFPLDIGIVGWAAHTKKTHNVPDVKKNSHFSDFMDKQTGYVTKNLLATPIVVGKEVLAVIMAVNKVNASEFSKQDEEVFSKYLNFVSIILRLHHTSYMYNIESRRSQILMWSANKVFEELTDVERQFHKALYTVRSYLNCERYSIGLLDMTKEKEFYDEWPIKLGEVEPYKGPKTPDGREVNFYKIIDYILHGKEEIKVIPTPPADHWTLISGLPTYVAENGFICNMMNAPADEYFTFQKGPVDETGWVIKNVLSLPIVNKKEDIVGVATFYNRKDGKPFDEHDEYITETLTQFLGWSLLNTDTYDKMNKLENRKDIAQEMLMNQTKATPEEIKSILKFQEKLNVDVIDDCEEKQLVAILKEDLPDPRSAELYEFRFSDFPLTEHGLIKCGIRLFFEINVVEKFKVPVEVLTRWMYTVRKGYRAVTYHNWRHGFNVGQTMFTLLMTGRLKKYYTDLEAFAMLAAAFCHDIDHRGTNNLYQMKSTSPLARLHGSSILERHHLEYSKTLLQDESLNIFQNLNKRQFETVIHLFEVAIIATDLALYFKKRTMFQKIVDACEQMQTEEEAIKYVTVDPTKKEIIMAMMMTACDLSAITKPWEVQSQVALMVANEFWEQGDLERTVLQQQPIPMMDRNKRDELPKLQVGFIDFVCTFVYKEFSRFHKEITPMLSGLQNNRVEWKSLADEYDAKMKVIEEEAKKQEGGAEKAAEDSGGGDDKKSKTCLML

Assays:
human PDE-5A1 = human PDE-5A1 (Homo sapiens, UniProt O76074); experiment: Human PDE-5A1 inhibition assay (fluorescence polarization); assay type: biochemical; conditions: read-out: IC50 (μM) PDE5A1; human PDE5A1, 100 nM FAM-cGMP, 60 minutes at room temperature
human PDE-6C = human PDE-6C (Homo sapiens, UniProt P51160); experiment: Human PDE-6C inhibition assay (fluorescence polarization); assay type: biochemical; conditions: read-out: IC50 (μM) PDE6C, 100 nM FAM-cGMP, 60 minutes at room temperature

SMILES: CCCc1nn(C)c2c(=O)[nH]c(-c3cc(S(=O)(=O)N4CC(CN5CC(CCO)C5)C4)ccc3OCC)nc12
- IC50 (human PDE-5A1): 0.01 to 0.1 µM
- IC50 (human PDE-6C): 0.01 to 0.1 µM

SMILES: CCCc1nc(C)c2c(=O)[nH]c(-c3cc(S(=O)(=O)N4CC(O)C4)ccc3OCC)nn12
- IC50 (human PDE-5A1): < 0.01 µM
